Measured affinities in a library of Ab-14 light chain variants

Values reported by Engelhart et al. 2022, doi:10.1038/s41597-022-01779-4 (FLAb copy).

Target peptide (SARS-CoV-2 spike, HR2 region): PDVDLGDISGINAS

Ab-14 is the parent antibody, in scFv form: VH, then a 15-residue (Gly4Ser)3 linker, then VL. The heavy chain is unchanged in all variants.
VH: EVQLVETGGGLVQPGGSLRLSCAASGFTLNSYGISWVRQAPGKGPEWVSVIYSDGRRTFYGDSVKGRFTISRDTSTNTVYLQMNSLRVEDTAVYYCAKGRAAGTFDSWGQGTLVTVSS
VL: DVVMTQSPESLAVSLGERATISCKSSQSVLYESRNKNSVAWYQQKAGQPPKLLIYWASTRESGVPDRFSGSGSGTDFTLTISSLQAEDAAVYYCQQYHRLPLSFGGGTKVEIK

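Library AAYL50 holds single substitutions and randomly drawn double and triple substitutions in the CDRs. Affinity was read by AlphaSeq, a pooled yeast mating assay with surface-displayed partners. Mating (16 h, 30 °C) was followed by selection of diploids and sequencing of their barcodes. A regression on co-assayed BCL2-family reference pairs converts the normalised counts of each replicate to an apparent Kd. Each pool was mated in three replicate cultures.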

Positions count from residue 1 of the parent VL; K24N puts N in place of K. Every variant below is changed at K24 of the VL (sequential numbering). Affinities are written as log10 Kd with Kd in nM; a lower number is a better binder. The mean shown is taken over the replicates in which the pair was detected. A pair that was not seen in that replicate is written "nd"; this usually means weak binding, but a binder can also be missed. The list is sorted by this average, lowest first, undetected variants last. In this assay the parent's reference entry averaged 0.65; its copy inside this library read 1.68.

Variant K24N/L30T/R34S gave 0.22, 0.59, 0.33 (mean 0.38).
Variant K24H/S58T/T59E gave 0.33, 0.63, 0.47 (mean 0.48).
Variant K24S/Q27M/Y31S gave 0.73, 0.91, 0.78 (mean 0.81).
Variant K24L/S25I/V29K gave 0.70, 0.84, 0.89 (mean 0.81).
Variant K24I/E32A/W56D gave 1.03, 1.19, 1.13 (mean 1.11).
Variant K24S/W56H/A57C gave 1.07, 1.26, 1.22 (mean 1.18).
Variant K24D gave 1.25, 1.29, 1.56 (mean 1.37).
Variant K24F/Y97I/H98T gave 1.42, 1.22, 1.47 (mean 1.37).
Variant K24L/S62K/Q95S gave 1.13, nd, 1.69 (mean 1.41).
Variant K24F/E61M/S103I gave 1.30, 1.45, 1.61 (mean 1.45).
Variant K24L/Y31W/R99H gave 1.86, 1.18, 1.40 (mean 1.48).
Variant K24C/S33P gave 1.48, 1.66, 1.73 (mean 1.63).
Variant K24L/Q96K gave 1.90, 1.47, 1.64 (mean 1.67).
Variant K24N/N35D/N37F gave 1.48, 1.61, 2.03 (mean 1.71).
Variant K24D/Y31H/S62M gave 1.60, 2.09, 1.51 (mean 1.73).
Variant K24H/S28G/E61P gave 2.06, 1.82, 1.82 (mean 1.90).
Variant K24Q/S58Y/S62W gave 2.39, 2.00, 2.67 (mean 2.35).
Variant K24R/S62K/P101G gave 2.58, 1.97, 2.79 (mean 2.44).
Variant K24A/S28V/H98V gave 2.39, 2.01, 3.05 (mean 2.48).
Variant K24N/S28D/Q96M gave 2.67, 2.46, 2.95 (mean 2.69).
Variant K24G/E61H/P101S gave 2.89, 2.94, 2.93 (mean 2.92).
Variant K24N/E32S/A57E gave nd, 3.26, nd.
Variant K24E/Y31L/Y97C gave 3.27, 3.06, 3.61 (mean 3.31).
Variant K24E/E32P/R99N gave 3.76, 2.83, 3.65 (mean 3.41).
Variant K24L/N37C/E61L gave 4.63, 2.94, 3.21 (mean 3.59).
Variant K24F/S33L/H98C gave nd, 3.62, nd.
Variant K24P/Q27T gave 3.97, 3.38, nd (mean 3.68).
Variant K24C/T59P/R99T gave nd, 3.71, nd.
Variant K24P/S25W/N37T gave nd, 3.74, nd.
Variant K24M/S26H gave 4.26, 3.52, 3.90 (mean 3.89).
Variant K24T/N37G/S58R gave 3.96, nd, nd.
Variant K24G/T59W/H98K gave 3.02, nd, 5.46 (mean 4.24).
Variant K24F/R34A/V39H gave nd, nd, 4.59.
Variant K24N/K36Y/Y97C gave nd, nd, 4.88.
Variant K24N/E32H/A40H gave 5.73, nd, 4.38 (mean 5.05).
Variant K24C/L102H gave nd, nd, nd.
Variant K24L/A40K/T59P gave nd, nd, nd.
Variant K24V/W56C/R60Y gave nd, nd, nd.
Variant K24V/E32N/A40E gave nd, nd, nd.
Variant K24R/A40K/P101R gave nd, nd, nd.
Variant K24W/A40Q/P101K gave nd, nd, nd.
Variant K24W/W56V/H98D gave nd, nd, nd.
Variant K24P/N35E/R99L gave nd, nd, nd.
Variant K24C/S25P/V39E gave nd, nd, nd.
Variant K24L/S58K/Y97G gave nd, nd, nd.
Variant K24F/S25K/A40V gave nd, nd, nd.
Variant K24H/S26N/A40K gave nd, nd, nd.
Variant K24W/Q27Y/N37G gave nd, nd, nd.
Variant K24F/S33C gave nd, nd, nd.

3 of these entries, quoted again:

| changes | log10 Kd, replicates | mean log10 Kd (nM) |
|---|---|---|
| K24H/S26N/A40K | nd, nd, nd | nd |
| K24I/E32A/W56D | 1.03, 1.19, 1.13 | 1.11 |
| K24F/S33C | nd, nd, nd | nd |

Background: pairings of library AAYL50 with three empty control strains gave a value in 18% of cases (median 4.19, 5th percentile 2.99). Values in that range, when seen in few replicates, are hard to tell from nonspecific mating.